For the test, the target named is CD73 protein (Homo sapiens, UniProt P21589). In words: CD73 enzyme inhibition assay (Malachite Green Phosphate Detection Kit). As to conditions: read-out: Potency (IC50 class) in CD73 enzyme assay, Tris-HCl pH 7.3.

Amino acid sequences for entries named in this document (tags omitted). Residues count along the entry.
UniProt P21589, 27-549 limits assumed: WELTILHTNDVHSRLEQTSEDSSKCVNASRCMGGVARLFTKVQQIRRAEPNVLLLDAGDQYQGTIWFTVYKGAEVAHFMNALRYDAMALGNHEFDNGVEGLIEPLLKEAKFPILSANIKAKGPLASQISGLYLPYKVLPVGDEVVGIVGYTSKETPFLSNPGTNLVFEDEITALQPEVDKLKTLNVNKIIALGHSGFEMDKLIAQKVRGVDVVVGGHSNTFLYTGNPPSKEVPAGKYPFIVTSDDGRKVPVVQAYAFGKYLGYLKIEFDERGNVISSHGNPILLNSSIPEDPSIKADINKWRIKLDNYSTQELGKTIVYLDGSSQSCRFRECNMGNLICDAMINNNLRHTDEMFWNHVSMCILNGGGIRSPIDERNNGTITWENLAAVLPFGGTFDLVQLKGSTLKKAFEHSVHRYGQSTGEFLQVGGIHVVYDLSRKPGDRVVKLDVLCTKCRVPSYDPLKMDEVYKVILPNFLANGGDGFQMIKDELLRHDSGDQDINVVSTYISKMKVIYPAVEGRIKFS

One compound from patent US20240024346A1, “CD73 INHIBITORS AND PHARMACEUTICAL USES THEREOF” (RISEN (SUZHOU) PHARMA TECH CO., LTD., priority 2020, published 2024) can be followed below.

One may read the IC50 as the concentration that gives 50% inhibition. Turning to `O=P(O)(O)CP(=O)(O)OC[C@H]1O[C@@H](n2cnc3c(NC45CC6CC(CC(C6)C4)C5)nc(Cl)nc32)[C@H](O)[C@@H]1O`, the IC50 was less than 10 nM.
